Measured values as given in article PMC2782037 (The Journal of Biological Chemistry, 2009).

Biological target: T1, Full-length human FANCI with an N-terminal hexahistidine tag (human, UniProt Q9NVI1-3 1-1328)
T1 sequence (looked up): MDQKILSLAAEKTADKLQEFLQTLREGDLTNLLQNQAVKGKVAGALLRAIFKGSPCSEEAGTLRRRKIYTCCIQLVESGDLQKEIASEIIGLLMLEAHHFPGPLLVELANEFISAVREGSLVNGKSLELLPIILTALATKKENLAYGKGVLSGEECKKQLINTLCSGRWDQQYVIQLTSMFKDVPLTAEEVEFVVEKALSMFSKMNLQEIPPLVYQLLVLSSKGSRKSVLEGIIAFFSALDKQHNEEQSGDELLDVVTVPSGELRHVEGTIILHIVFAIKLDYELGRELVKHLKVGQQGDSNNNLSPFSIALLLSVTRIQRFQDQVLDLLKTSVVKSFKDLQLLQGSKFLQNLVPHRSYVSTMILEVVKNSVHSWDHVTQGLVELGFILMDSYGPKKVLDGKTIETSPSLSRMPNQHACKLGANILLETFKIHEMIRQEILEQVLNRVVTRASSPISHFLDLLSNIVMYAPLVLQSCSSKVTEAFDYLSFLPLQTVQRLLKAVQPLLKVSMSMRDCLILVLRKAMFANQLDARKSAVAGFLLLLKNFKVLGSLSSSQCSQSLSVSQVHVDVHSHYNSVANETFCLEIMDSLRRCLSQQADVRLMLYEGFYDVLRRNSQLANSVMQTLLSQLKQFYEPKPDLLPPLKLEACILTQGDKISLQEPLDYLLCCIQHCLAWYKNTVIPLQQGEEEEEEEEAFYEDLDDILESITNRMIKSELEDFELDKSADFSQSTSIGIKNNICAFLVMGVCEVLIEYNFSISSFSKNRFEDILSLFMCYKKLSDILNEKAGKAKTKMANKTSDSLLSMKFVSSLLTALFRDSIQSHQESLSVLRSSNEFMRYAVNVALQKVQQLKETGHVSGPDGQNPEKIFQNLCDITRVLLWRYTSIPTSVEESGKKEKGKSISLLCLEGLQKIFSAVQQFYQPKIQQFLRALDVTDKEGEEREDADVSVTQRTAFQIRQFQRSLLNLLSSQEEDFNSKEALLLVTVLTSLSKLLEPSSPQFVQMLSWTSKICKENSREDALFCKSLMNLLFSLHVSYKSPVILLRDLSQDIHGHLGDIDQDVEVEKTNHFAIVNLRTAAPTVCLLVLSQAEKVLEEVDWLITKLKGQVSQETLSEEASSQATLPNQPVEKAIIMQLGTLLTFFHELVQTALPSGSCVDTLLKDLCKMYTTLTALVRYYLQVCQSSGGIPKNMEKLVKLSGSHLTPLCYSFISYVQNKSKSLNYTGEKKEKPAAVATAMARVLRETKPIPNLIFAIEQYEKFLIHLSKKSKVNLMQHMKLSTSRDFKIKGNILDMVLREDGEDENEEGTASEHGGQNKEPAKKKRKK
Assay: SEC

B1: Human FANCD2, non-tagged (natural protein, UniProt Q9BXW9-2 1-1451, looked up)
chain: MVSKRRLSKSEDKESLTEDASKTRKQPLSKKTKKSHIANEVEENDSIFVKLLKISGIILKTGESQNQLAVDQIAFQKKLFQTLRRHPSYPKIIEEFVSGLESYIEDEDSFRNCLLSCERLQDEEASMGASYSKSLIKLLLGIDILQPAIIKTLFEKLPEYFFENKNSDEINIPRLIVSQLKWLDRVVDGKDLTTKIMQLISIAPENLQHDIITSLPEILGDSQHADVGKELSDLLIENTSLTVPILDVLSSLRLDPNFLLKVRQLVMDKLSSIRLEDLPVIIKFILHSVTAMDTLEVISELREKLDLQHCVLPSRLQASQVKLKSKGRASSSGNQESSGQSCIILLFDVIKSAIRYEKTISEAWIKAIENTASVSEHKVFDLVMLFIIYSTNTQTKKYIDRVLRNKIRSGCIQEQLLQSTFSVHYLVLKDMCSSILSLAQSLLHSLDQSIISFGSLLYKYAFKFFDTYCQQEVVGALVTHICSGNEAEVDTALDVLLELVVLNPSAMMMNAVFVKGILDYLDNISPQQIRKLFYVLSTLAFSKQNEASSHIQDDMHLVIRKQLSSTVFKYKLIGIIGAVTMAGIMAADRSESPSLTQERANLSDEQCTQVTSLLQLVHSCSEQSPQASALYYDEFANLIQHEKLDPKALEWVGHTICNDFQDAFVVDSCVVPEGDFPFPVKALYGLEEYDTQDGIAINLLPLLFSQDFAKDGGPVTSQESGQKLVSPLCLAPYFRLLRLCVERQHNGNLEEIDGLLDCPIFLTDLEPGEKLESMSAKERSFMCSLIFLTLNWFREIVNAFCQETSPEMKGKVLTRLKHIVELQIILEKYLAVTPDYVPPLGNFDVETLDITPHTVTAISAKIRKKGKIERKQKTDGSKTSSSDTLSEEKNSECDPTPSHRGQLNKEFTGKEEKTSLLLHNSHAFFRELDIEVFSILHCGLVTKFILDTEMHTEATEVVQLGPPELLFLLEDLSQKLESMLTPPIARRVPFLKNKGSRNIGFSHLQQRSAQEIVHCVFQLLTPMCNHLENIHNYFQCLAAENHGVVDGPGVKVQEYHIMSSCYQRLLQIFHGLFAWSGFSQPENQNLLYSALHVLSSRLKQGEHSQPLEELLSQSVHYLQNFHQSIPSFQCALYLIRLLMVILEKSTASAQNKEKIASLARQFLCRVWPSGDKEKSNISNDQLHALLCIYLEHTESILKAIEEIAGVGVPELINSPKDASSSTFPTLTRHTFVVFFRVMMAELEKTVKKIEPGTAADSQQIHEEKLLYWNMAVRDFSILINLIKVFDSHPVLHVCLKYGRLFVEAFLKQCMPLLDFSFRKHREDVLSLLETFQLDTRLLHHLCGHSKIHQDTRLTQHVPLLKKTLELLVCRVKAMLTLNNCREAFWLGNLKNRDLQGEEIKSQNSQESTADESEDDMSSQASKSKATEDGEEDEVSAGEKEQDSDESYDDSD
- stoichiometry N: 1
